Measurements: PubChem BioAssay (NCI)
Some of these compounds have results that are not shown, active ones among them.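 Five compound concentrations were applied to cells in 96-well plates for 48 hours; endpoints were derived by simple linear interpolation of the resulting dose-response curve. GI50 is the concentration that inhibits growth by half. TGI marks complete inhibition of growth.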

What was measured:
Assay in all cases: NCI-60 cell line screen, 48 h
[1] = test system: BT-549 breast
[2] = test system: OVCAR-3 ovarian
[3] = test system: HCC-2998 colon
[4] = test system: SR leukemia
[5] = test system: HS 578T breast
[6] = test system: NCI-H23 lung
[7] = test system: HOP-92 NSCLC
[8] = test system: HOP-62 NSCLC
[9] = test system: NCI-H522 lung
[10] = test system: LOX IMVI melanoma
[11] = test system: UACC-62 melanoma
[12] = test system: SF-295 CNS
[13] = test system: A498 renal
[14] = test system: HL-60(TB) leukemia
[15] = test system: HCT-116 colon
[16] = test system: M14 melanoma
[17] = test system: IGROV1 ovarian
[18] = test system: CAKI-1 renal
[19] = test system: RXF 393 renal
[20] = test system: K-562 leukemia
[21] = test system: MDA-MB-435
[22] = test system: SK-MEL-28 melanoma
[23] = test system: A549 NSCLC
[24] = test system: SN12C renal
[25] = test system: NCI-H226 lung
[26] = test system: EKVX NSCLC
[27] = test system: SF-268 CNS
[28] = test system: SW-620 colon
[29] = test system: OVCAR-5 ovarian
[30] = test system: SNB-19 CNS
[31] = test system: MOLT-4 leukemia
[32] = test system: MALME-3M melanoma
[33] = test system: SK-MEL-5 melanoma
[34] = test system: DU-145 prostate
[35] = test system: MDA-N
[36] = test system: T-47D breast
[37] = test system: NCI-H460 lung
[38] = test system: RPMI-8226 leukemia
[39] = test system: OVCAR-4 ovarian
[40] = test system: SK-OV-3 ovarian
[41] = test system: OVCAR-8 ovarian
[42] = test system: PC-3 prostate
[43] = test system: MCF7 breast
[44] = test system: CCRF-CEM leukemia
[45] = test system: SF-539 CNS
[46] = test system: 786-0 renal
[47] = test system: NCI-H322M lung
[48] = test system: SNB-75 CNS
[49] = test system: U251 CNS
[50] = test system: HT29 colon
[51] = test system: SK-MEL-2 melanoma
[52] = test system: HCT-15 colon
[53] = test system: ACHN renal
[54] = test system: TK-10 renal
[55] = test system: UO-31 renal
[56] = test system: COLO 205 colon
[57] = test system: NCI/ADR-RES ovarian
[58] = test system: KM12 colon
[59] = test system: UACC-257 melanoma
[60] = test system: MDA-MB-231 breast

Structure (SMILES): CC#CC(O)(C(=O)OC1C2CCN(CC2)C1C)C1=CCCC1 (stereo not given)
- GI50 [1]: > 100 µM
- TGI [1]: > 100 µM
- GI50 [2]: > 100 µM
- TGI [2]: > 100 µM
- GI50 [3]: > 100 µM
- TGI [3]: > 100 µM
- GI50 [4]: > 100 µM
- TGI [4]: > 100 µM
- GI50 [5]: > 100 µM
- TGI [5]: > 100 µM
- GI50 [6]: > 100 µM
- TGI [6]: > 100 µM
- GI50 [7]: > 100 µM
- TGI [7]: > 100 µM
- GI50 [8]: > 100 µM
- TGI [8]: > 100 µM
- GI50 [9]: > 100 µM
- TGI [9]: > 100 µM
- GI50 [10]: > 100 µM
- TGI [10]: > 100 µM
- GI50 [11]: > 100 µM
- TGI [11]: > 100 µM
- GI50 [12]: > 100 µM
- TGI [12]: > 100 µM
- GI50 [13]: > 100 µM
- TGI [13]: > 100 µM
- GI50 [14]: > 100 µM
- TGI [14]: > 100 µM
- GI50 [15]: > 100 µM
- TGI [15]: > 100 µM
- GI50 [16]: > 100 µM
- TGI [16]: > 100 µM
- GI50 [17]: > 100 µM
- TGI [17]: > 100 µM
- GI50 [18]: > 100 µM
- TGI [18]: > 100 µM
- GI50 [19]: > 100 µM
- TGI [19]: > 100 µM
- GI50 [20]: 40.4 µM
- TGI [20]: > 100 µM
- GI50 [21]: > 100 µM
- TGI [21]: > 100 µM
- GI50 [22]: > 100 µM
- TGI [22]: > 100 µM
- GI50 [23]: > 100 µM
- TGI [23]: > 100 µM
- GI50 [24]: > 100 µM
- TGI [24]: > 100 µM
- GI50 [25]: > 100 µM
- TGI [25]: > 100 µM
- GI50 [26]: > 100 µM
- TGI [26]: > 100 µM
- GI50 [27]: 26.7 µM
- TGI [27]: > 100 µM
- GI50 [28]: > 100 µM
- TGI [28]: > 100 µM
- GI50 [29]: > 100 µM
- TGI [29]: > 100 µM
- GI50 [30]: > 100 µM
- TGI [30]: > 100 µM
- GI50 [31]: 32.4 µM
- TGI [31]: 91.6 µM
- GI50 [32]: > 100 µM
- TGI [32]: > 100 µM
- GI50 [33]: > 100 µM
- TGI [33]: > 100 µM
- GI50 [34]: > 100 µM
- TGI [34]: > 100 µM
- GI50 [35]: > 100 µM
- TGI [35]: > 100 µM
- GI50 [36]: > 100 µM
- TGI [36]: > 100 µM
- GI50 [37]: > 100 µM
- TGI [37]: > 100 µM
- GI50 [38]: > 100 µM
- TGI [38]: > 100 µM
- GI50 [39]: > 100 µM
- TGI [39]: > 100 µM
- GI50 [40]: > 100 µM
- TGI [40]: > 100 µM
- GI50 [41]: > 100 µM
- TGI [41]: > 100 µM
- GI50 [42]: > 100 µM
- TGI [42]: > 100 µM
- GI50 [43]: > 100 µM
- TGI [43]: > 100 µM
- GI50 [44]: 35.6 µM
- TGI [44]: 72 µM
- GI50 [45]: > 100 µM
- TGI [45]: > 100 µM
- GI50 [46]: > 100 µM
- TGI [46]: > 100 µM
- GI50 [47]: > 100 µM
- TGI [47]: > 100 µM
- GI50 [48]: 42.2 µM
- TGI [48]: 81.6 µM
- GI50 [49]: > 100 µM
- TGI [49]: > 100 µM
- GI50 [50]: > 100 µM
- TGI [50]: > 100 µM
- GI50 [51]: > 100 µM
- TGI [51]: > 100 µM
- GI50 [52]: > 100 µM
- TGI [52]: > 100 µM
- GI50 [53]: > 100 µM
- TGI [53]: > 100 µM
- GI50 [54]: > 100 µM
- TGI [54]: > 100 µM
- GI50 [55]: > 100 µM
- TGI [55]: > 100 µM
- GI50 [56]: > 100 µM
- TGI [56]: > 100 µM
- GI50 [57]: > 100 µM
- TGI [57]: > 100 µM
- GI50 [58]: > 100 µM
- TGI [58]: > 100 µM
- GI50 [59]: > 100 µM
- TGI [59]: > 100 µM
- GI50 [60]: > 100 µM
- TGI [60]: > 100 µM
